Test results published in PMC4404408 (Journal of acquired immune deficiency syndromes (1999), 2014).

Legend:
[1] = Safety / adverse events in the drug interaction study; details: arm B, diffuse rash soon after starting DRV/r only, 2 subjects
[2] = Phase I open-label drug interaction PK study, arm B
[3] = DRV/r 800/100 mg only, day 14, N=14
[4] = DRV/r 800/100 mg with pitavastatin 2 mg, day 18, N=14
[5] = DRV/r with pitavastatin / DRV/r only

For darunavir/ritonavir [DRV/r], the “Rash, subjects” value [1] was 9%, the “DRV AUC0-τ, geometric mean” value [2, 3] was 70900 ng·h/mL and the “DRV Cmax, geometric mean” value [2, 3] was 6610 ng/mL. For the same substance, the “DRV AUC0-τ, geometric mean” value [2, 4] was 76700 ng·h/mL, the “DRV Cmax, geometric mean” value [2, 4] was 6780 ng/mL and the “DRV Tmax, median (IQR)” value ([2]; DRV/r only, day 14, N=14) was 0.5 (0.5 to 0.5) h. For the same substance, the “DRV AUC0-τ geometric mean ratio (90% CI)” value [2, 5] was 1.08 (0.96 to 1.22) and the “DRV Cmax geometric mean ratio (90% CI)” value [2, 5] was 1.03 (0.91 to 1.15).
